Measurements from article PMC7534351, “Imidazothiazole-based potent inhibitors of V600E-B-RAF kinase with promising anti-melanoma activity: biological and computational studies” (Journal of Enzyme Inhibition and Medicinal Chemistry, 2020).

Amino acid sequences for entries named in this document (tags omitted).
UniProt P04049, whole entry: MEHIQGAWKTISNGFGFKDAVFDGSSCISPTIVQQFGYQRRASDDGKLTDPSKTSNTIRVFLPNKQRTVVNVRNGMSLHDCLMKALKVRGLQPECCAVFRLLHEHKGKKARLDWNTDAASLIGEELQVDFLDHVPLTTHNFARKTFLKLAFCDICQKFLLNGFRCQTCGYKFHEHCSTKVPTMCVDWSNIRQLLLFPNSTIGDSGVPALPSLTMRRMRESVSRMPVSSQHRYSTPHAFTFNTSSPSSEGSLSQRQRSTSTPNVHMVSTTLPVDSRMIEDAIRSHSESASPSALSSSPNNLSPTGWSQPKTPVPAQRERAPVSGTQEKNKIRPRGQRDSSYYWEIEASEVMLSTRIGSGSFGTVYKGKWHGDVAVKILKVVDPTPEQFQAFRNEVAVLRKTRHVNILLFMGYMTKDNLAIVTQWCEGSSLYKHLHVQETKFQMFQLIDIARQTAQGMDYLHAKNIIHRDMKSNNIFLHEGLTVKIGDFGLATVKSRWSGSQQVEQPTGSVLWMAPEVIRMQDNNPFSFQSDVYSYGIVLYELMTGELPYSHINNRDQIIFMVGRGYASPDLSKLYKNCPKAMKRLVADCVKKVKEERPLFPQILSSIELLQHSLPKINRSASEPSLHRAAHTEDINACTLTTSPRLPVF
UniProt P15056, whole entry V600E: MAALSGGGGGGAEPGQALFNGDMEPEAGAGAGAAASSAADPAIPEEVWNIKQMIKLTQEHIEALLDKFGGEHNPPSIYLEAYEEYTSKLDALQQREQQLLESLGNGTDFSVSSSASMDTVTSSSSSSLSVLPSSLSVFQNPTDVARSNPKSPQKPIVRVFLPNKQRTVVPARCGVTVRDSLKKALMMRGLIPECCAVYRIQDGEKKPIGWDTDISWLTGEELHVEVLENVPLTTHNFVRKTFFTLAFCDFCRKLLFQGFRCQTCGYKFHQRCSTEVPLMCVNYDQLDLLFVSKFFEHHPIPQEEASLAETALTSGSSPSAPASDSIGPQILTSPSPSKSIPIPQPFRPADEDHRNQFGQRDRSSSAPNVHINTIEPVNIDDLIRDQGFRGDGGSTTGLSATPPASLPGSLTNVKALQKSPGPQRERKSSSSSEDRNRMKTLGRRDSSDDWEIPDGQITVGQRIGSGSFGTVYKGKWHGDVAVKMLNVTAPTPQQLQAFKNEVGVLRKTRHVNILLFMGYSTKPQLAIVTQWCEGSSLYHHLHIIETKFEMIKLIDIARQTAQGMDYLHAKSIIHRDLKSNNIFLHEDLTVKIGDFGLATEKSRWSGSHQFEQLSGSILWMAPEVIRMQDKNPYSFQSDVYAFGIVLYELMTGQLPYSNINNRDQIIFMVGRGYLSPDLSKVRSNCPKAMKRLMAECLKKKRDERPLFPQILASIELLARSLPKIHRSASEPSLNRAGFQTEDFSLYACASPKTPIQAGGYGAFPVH

Assays:
[1] = target: RAF1 (Homo sapiens, UniProt P04049); assay: Cell-free kinase profiling, RAF1; details: for One-dose (1 µM) results against RAF1 (% inhibition): mean of duplicate assays ± SEM; for pIC50 (RAF1): from the IC50 values of Table 1, used for QSAR; for IC50: read-out: IC50 value (nM) against RAF1, 10-dose mode
[2] = target: V600E-B-RAF (Homo sapiens, UniProt P15056, V600E); assay: Cell-free kinase profiling, V600E-B-RAF; details: for One-dose (1 µM) results against V600E-B-RAF (% inhibition): mean of duplicate assays ± SEM; for pIC50 (V600E- B-RAF): from the IC50 values of Table 1, used for QSAR; for IC50: read-out: IC50 value (nM) against V600E-B-RAF, 10-dose mode

Compound: Cc1ccc(C(=O)NCCNc2nccc(-c3c(-c4ccc(F)cc4)nc4sccn34)n2)cc1
- One-dose (1 µM) results against RAF1 (% inhibition) [1]: 71.39% ± 1.32%
- One-dose (1 µM) results against V600E-B-RAF (% inhibition) [2]: 90.99% ± 0.56%
- pIC50 (V600E- B-RAF) [2]: 7.077
- IC50 [2]: 83.8 nM

Compound: O=C(NCCNc1nccc(-c2c(-c3ccc(F)cc3)nc3sccn23)n1)c1cc(N2CCOCC2)cc(C(F)(F)F)c1
- One-dose (1 µM) results against RAF1 (% inhibition) [1]: 75.69% ± 0.67%
- One-dose (1 µM) results against V600E-B-RAF (% inhibition) [2]: 84.82% ± 0.42%
- pIC50 (V600E- B-RAF) [2]: 6.921
- IC50 [2]: 120 nM

Compound: Cc1cn(-c2cc(C(=O)NCCNc3nccc(-c4c(-c5ccc(F)cc5)nc5sccn45)n3)cc(C(F)(F)F)c2)cn1
- One-dose (1 µM) results against RAF1 (% inhibition) [1]: 75.89% ± 1.43%
- One-dose (1 µM) results against V600E-B-RAF (% inhibition) [2]: 80.25% ± 0.61%
- pIC50 (V600E- B-RAF) [2]: 7.083
- IC50 [2]: 82.6 nM

Compound: O=C(NCCNc1nccc(-c2c(-c3ccc(F)cc3)nc3sccn23)n1)c1ccccc1
- One-dose (1 µM) results against RAF1 (% inhibition) [1]: 62.63% ± 0.34%
- One-dose (1 µM) results against V600E-B-RAF (% inhibition) [2]: 90.43% ± 0.72%
- pIC50 (V600E- B-RAF) [2]: 6.842
- IC50 [2]: 144 nM

Compound: O=C(NCCNc1nccc(-c2c(-c3cccc(O)c3)nc3sccn23)n1)Nc1cccc(C(F)(F)F)c1
- One-dose (1 µM) results against RAF1 (% inhibition) [1]: 97.28% ± 0.08%
- pIC50 (RAF1) [1]: 7.304
- IC50 [1]: 49.7 nM
- One-dose (1 µM) results against V600E-B-RAF (% inhibition) [2]: 99.54% ± 0.23%
- pIC50 (V600E- B-RAF) [2]: 7.735
- IC50 [2]: 18.4 nM

Compound: COc1cccc(NC(=O)NCCNc2nccc(-c3c(-c4ccc(F)cc4)nc4sccn34)n2)c1
- One-dose (1 µM) results against RAF1 (% inhibition) [1]: 63.81% ± 2.51%
- One-dose (1 µM) results against V600E-B-RAF (% inhibition) [2]: 73.06 ± 1.72%
- pIC50 (V600E- B-RAF) [2]: 6.611
- IC50 [2]: 245 nM

Compound: O=C(NCCNc1nccc(-c2c(-c3cccc(O)c3)nc3sccn23)n1)Nc1cc(C(F)(F)F)cc(C(F)(F)F)c1
- One-dose (1 µM) results against RAF1 (% inhibition) [1]: 67.56% ± 4.79%
- One-dose (1 µM) results against V600E-B-RAF (% inhibition) [2]: 87.74% ± 0.38%
- pIC50 (V600E- B-RAF) [2]: 6.712
- IC50 [2]: 194 nM

Compound: O=C(NCCNc1nccc(-c2c(-c3ccc(F)cc3)nc3sccn23)n1)c1ccccc1O
- One-dose (1 µM) results against RAF1 (% inhibition) [1]: 69.84% ± 0.52%
- One-dose (1 µM) results against V600E-B-RAF (% inhibition) [2]: 91.40% ± 0.48%
- pIC50 (V600E- B-RAF) [2]: 7.107
- IC50 [2]: 78.2 nM

Compound: COc1cccc(-c2nc3sccn3c2-c2ccnc(NCCNC(=O)c3cccc(C(F)(F)F)c3)n2)c1
- One-dose (1 µM) results against RAF1 (% inhibition) [1]: 56.61% ± 2.15%
- One-dose (1 µM) results against V600E-B-RAF (% inhibition) [2]: 83.65% ± 0.47%
- pIC50 (V600E- B-RAF) [2]: 6.917
- IC50 [2]: 121 nM

Compound: COc1cccc(-c2nc3sccn3c2-c2ccnc(NCCNC(=O)c3ccc(N4CCOCC4)c(C(F)(F)F)c3)n2)c1
- One-dose (1 µM) results against RAF1 (% inhibition) [1]: 32.12% ± 2.26%
- One-dose (1 µM) results against V600E-B-RAF (% inhibition) [2]: 79.41% ± 0.56%
- pIC50 (V600E- B-RAF) [2]: 6.618
- IC50 [2]: 241 nM

Compound: O=C(NCCNc1nccc(-c2c(-c3cccc(O)c3)nc3sccn23)n1)c1cccc(C(F)(F)F)c1
- One-dose (1 µM) results against RAF1 (% inhibition) [1]: 98.71% ± 0.23%
- pIC50 (RAF1) [1]: 7.777
- IC50 [1]: 16.7 nM
- One-dose (1 µM) results against V600E-B-RAF (% inhibition) [2]: 100.24% ± 0.17%
- pIC50 (V600E- B-RAF) [2]: 8.469
- IC50 [2]: 3.4 nM

Compound: COc1ccc(C(=O)NCCNc2nccc(-c3c(-c4ccc(F)cc4)nc4sccn34)n2)cc1OC
- One-dose (1 µM) results against RAF1 (% inhibition) [1]: 38.67% ± 5.01%
- One-dose (1 µM) results against V600E-B-RAF (% inhibition) [2]: 77.90% ± 0.11%
- pIC50 (V600E- B-RAF) [2]: 6.719
- IC50 [2]: 191 nM

Compound: O=C(NCCNc1nccc(-c2c(-c3ccc(F)cc3)nc3sccn23)n1)c1ccc2c(c1)OCCO2
- One-dose (1 µM) results against RAF1 (% inhibition) [1]: 55.46% ± 1.61%
- One-dose (1 µM) results against V600E-B-RAF (% inhibition) [2]: 85.45% ± 0.42%
- pIC50 (V600E- B-RAF) [2]: 6.848
- IC50 [2]: 142 nM

Compound: O=C(NCCNc1nccc(-c2c(-c3cccc(O)c3)nc3sccn23)n1)c1cc(N2CCOCC2)cc(C(F)(F)F)c1
- One-dose (1 µM) results against RAF1 (% inhibition) [1]: 96.60% ± 0.18%
- pIC50 (RAF1) [1]: 7.206
- IC50 [1]: 62.2 nM
- One-dose (1 µM) results against V600E-B-RAF (% inhibition) [2]: 100.66% ± 2.35%
- pIC50 (V600E- B-RAF) [2]: 8.131
- IC50 [2]: 7.4 nM

Compound: O=C(NCCNc1nccc(-c2c(-c3cccc(O)c3)nc3sccn23)n1)Nc1ccccc1
- One-dose (1 µM) results against RAF1 (% inhibition) [1]: 97.45% ± 0.10%
- pIC50 (RAF1) [1]: 7.341
- IC50 [1]: 45.6 nM
- One-dose (1 µM) results against V600E-B-RAF (% inhibition) [2]: 97.66% ± 0.16%
- pIC50 (V600E- B-RAF) [2]: 7.951
- IC50 [2]: 11.2 nM
